Key:
[1] = target: Adrenergic, Alpha 1, Non-selective; format: binding; conditions: read-out: Ki (M) Ref. Cpd.
[2] = target: Adrenergic, Alpha 2, Non-selective; format: binding; conditions: read-out: Ki (M) Ref. Cpd.

Compound: Cc1ccc(N(CC2=NCCN2)c2cccc(O)c2)cc1 [Phentolamine, reference compound]
- Ki [1]: 3.62e-09 M
- Ki [2]: 9.4e-09 M

Reference: US7838556B2 (priority 2006, dated 2010)
